Source: patent US12331032B2, “Quinone reductase 2 inhibitor compounds and uses thereof” (DUKE UNIVERSITY, priority 2018, dated 2025)

Chains of the proteins cited; added tags and fusions are not shown.
UniProt P16083, whole entry: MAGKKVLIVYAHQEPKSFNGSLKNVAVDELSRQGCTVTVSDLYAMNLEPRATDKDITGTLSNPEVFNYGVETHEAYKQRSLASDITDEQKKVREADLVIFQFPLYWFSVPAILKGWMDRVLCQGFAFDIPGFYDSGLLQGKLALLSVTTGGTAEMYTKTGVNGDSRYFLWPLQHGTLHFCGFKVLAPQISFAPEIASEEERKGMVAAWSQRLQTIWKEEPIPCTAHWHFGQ

Biological target: quinone reductase 2 (QR2) (Homo sapiens, UniProt P16083)
Test: QR2 inhibition, comparative IC50 data
Type: biochemical
Conditions: QR2 inhibitors

## CNc1ccnc2cc(Cl)ccc12
  IC50: 7.23 µM
